{"source": "patent US20110300138A1", "about": "(published 2011)", "assay_in_all_cases": "cell-based or functional assay", "key": {"[1]": {"biological_target": "human TSH receptor (wild type), expressed on transfected CHO cells (human) (UniProt P16473)"}, "[2]": {"biological_target": "human TSH receptor (TSHR), wild type, expressed in CHO cells (human) (UniProt P16473)"}, "[3]": {"biological_target": "human TSH receptor (full length, wild type) expressed on CHO cells (human) (UniProt P16473)"}, "[4]": {"biological_target": "human TSH receptor (full length, wild type) expressed in CHO cells (human) (UniProt P16473)"}}, "data": [{"substance": "porcine TSH (from UniProt P01219 25-120; P01224 21-132) (ligand)", "values": [{"measurement": "Cyclic AMP concentration; pTSH 3 ng/mL", "setting": "[1]", "value": 64.2, "unit": "pmol/mL"}, {"measurement": "Cyclic AMP concentration in hypotonic medium; 3 ng/mL pTSH alone", "setting": "[2]", "value": 65.2, "unit": "pmol/mL"}, {"measurement": "Cyclic AMP concentration in isotonic medium; 3 ng/mL pTSH alone", "setting": "[2]", "value": 42.4, "unit": "pmol/mL"}, {"measurement": "Cyclic AMP concentration in hypotonic medium; pTSH 3 ng/mL alone", "setting": "[3]", "value": 48.1, "unit": "pmol/mL"}, {"measurement": "Cyclic AMP concentration in isotonic medium; pTSH 3 ng/mL alone", "setting": "[3]", "value": 41.1, "unit": "pmol/mL"}, {"measurement": "Cyclic AMP concentration; 1 ng/mL pTSH alone", "setting": "[3]", "value": 61.7, "unit": "pmol/mL"}, {"measurement": "Cyclic AMP production concentration at 0.01 ng/mL pTSH", "setting": "[4]", "value": 1.4, "unit": "pmol/mL"}, {"measurement": "Cyclic AMP production concentration at 0.03 ng/mL pTSH", "setting": "[4]", "value": 2.4, "unit": "pmol/mL"}, {"measurement": "Cyclic AMP production concentration at 0.1 ng/mL pTSH", "setting": "[4]", "value": 7.2, "unit": "pmol/mL"}, {"measurement": "Cyclic AMP production concentration at 0.3 ng/mL pTSH", "setting": "[4]", "value": 18.5, "unit": "pmol/mL"}, {"measurement": "Cyclic AMP production concentration at 1 ng/mL pTSH", "setting": "[4]", "value": 51.7, "unit": "pmol/mL"}, {"measurement": "Cyclic AMP production concentration at 3 ng/mL pTSH", "setting": "[4]", "value": 55.4, "unit": "pmol/mL"}]}]}
